# Biological target: T1, GSK3-β (Homo sapiens, UniProt P49841)
# Protein sequences, listed by entry. Tags and fused reporters are not part of them. Lines headed by an entry give the natural chain unless they say otherwise; changes in a name come on top.
# UniProt P49841: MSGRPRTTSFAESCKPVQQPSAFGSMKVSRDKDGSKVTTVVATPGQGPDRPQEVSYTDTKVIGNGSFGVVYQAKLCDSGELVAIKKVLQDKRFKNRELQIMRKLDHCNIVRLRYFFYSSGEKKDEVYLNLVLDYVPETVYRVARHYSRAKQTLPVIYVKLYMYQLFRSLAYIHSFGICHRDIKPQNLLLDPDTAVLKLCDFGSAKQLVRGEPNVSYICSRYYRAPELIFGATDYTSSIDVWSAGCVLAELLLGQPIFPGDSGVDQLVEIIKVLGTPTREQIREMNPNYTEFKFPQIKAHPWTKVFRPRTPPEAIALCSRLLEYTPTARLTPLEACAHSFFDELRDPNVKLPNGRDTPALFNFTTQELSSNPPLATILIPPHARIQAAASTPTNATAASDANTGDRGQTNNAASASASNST
# T1 construct: purchased Upstate Discovery
# Assay: GSK3-B kinase inhibitory activity assay
# Assay type: biochemical
# Conditions: read-out: GSK3β IC50
# Protocol: GSK3-β (Upstate Discovery) are diluted to 7.5 nM in 25 mM MOPS, pH 7.00, 25 mg/ml BSA, 0.0025% Brij-35, 1.25% glycerol, 0.5 mM EDTA, 25 mM MgCl2, 0.025% β-mercaptoethanol, 37.5 mM ATP and 10 μl mixed with 10 μl of substrate mix. The substrate mix for GSK3-β is 12.5 μM phospho-glycogen synthase peptide-2 (Upstate Discovery) in 1 ml of water with 35 μCi γ^33P-ATP. Enzyme and substrate are added to 96 well plates along with 5 μl of various dilutions of the test compound in DMSO (up to 2.5%). The reaction is allowed to proceed for 3 hours (GSK3-β) before being stopped with an excess of ortho-phosphoric acid (5 μl at 2%). The filtration procedure is as for Activated CDK2/CyclinA assay above.
smiles,measurement,value
"CS(=O)(=O)N1CCC(NC(=O)c2n[nH]cc2NC(=O)c2c(Cl)cccc2Cl)CC1 [Example 1, 4-(2,6-dichloro-benzoylamino)-1H-pyrazole-3-carboxylic acid (1-methanesulphonyl-piperidin-4-yl)-amide]",IC50,220 nM
